Screening results (PubChem)
Rows were chosen to be rich in hits. Some 4.2% of all compounds tested hit in one or more screens of this group.
NALP1 yeast inh – inhibitors of NALP1 inflammasome in yeast; S. cerevisiae NALP1/ASC/caspase-1 growth, X-gal OD620, 72 h; inhibition, % at 10 µM; 280,000 compounds, 0.61% hits; AID 2071; in the data active means inhibition mostly above about 24%, no sharp cut-off; inactive means mostly below about 32%
UUG fidelity – yeast start codon fidelity modulation | S. cerevisiae UUG-firefly luciferase reporter, luminescence/redox ratio | activity score, % at 18.7 µM | 0.13% of 350,000 active | AID 602363;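 active means replicate mean at a twofold rise or more, about +100% in these data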;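 further: firefly luciferase made from a UUG start codon reports start codon fidelity; reporter light over untreated wells divided by growth signal over untreated wells; some hits fall short of that in this replicate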
ALR H2O2 inh – inhibitors of human ALR sulfhydryl oxidase, primary screen, biochemical, H2O2 detection, HRP-luminol luminescence, single point. 290,000 compounds, 3.8% hits. inhibition, % (concentration not given with the values). purified ALR, DTT oxidation. AID 485317, 2010;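 active means mean and each replicate at 75% or more; inconclusive means only one of the two met; inactive means neither met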;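 further: stock transfer was 7.5 nL into about 7.5 µL; 0% = neutral wells and 100% = wells with inactivated enzyme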
MC4R antagonist – human MC4R antagonism in cAMP assay; inhibition, % at 6.5 µM; 360,000 compounds, 0.48% hits; AID 540295; P32245; MC4R-expressing cells, MTII-stimulated cAMP, LANCE TR-FRET;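 active means inhibition above its plate's cutoff, the mean of tested wells on that plate plus 3 SD, cut at about 29% in these data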
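Assay system: U2OS-MC4R stable cell line; Also added: Melanotan II; Technique: Eu-cAMP/anti-cAMP TR-FRET, emission 671 nm; Times: 30-min compound, 1-h challenge, 1-h detection, room temperature.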
MC4R barr agon – activates human MC4R beta-arrestin recruitment; P32245; activation, % at 8.9 µM; 360,000 compounds, 0.98% hits; U2OS MC4R beta-arrestin complementation, luminescence; percent of melanotan II response, DMSO zero;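 active means activation above a per-plate cutoff, the mean activation of sample wells on that plate plus 3 SD, cut at about 8% in these data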
HDAC3 inh – blocks human histone deacetylase 3; recombinant HDAC3, fluorogenic peptide/trypsin coupled, fluorescence; inhibition, % at 8.3 µM; 320,000 compounds, 0.15% hits; AID 2718; in the data active means inhibition above about 26%, passing the limit was not always enough
U2OS cAMP counter – nonselective cAMP signaling inhibitor, MC4R antagonist counter-screen | inhibition, % at 6.5 µM | 1,600 compounds, 26% hits | parental U2OS, forskolin cAMP, LANCE TR-FRET | shares compounds with MC4R antagonist;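 active means mean inhibition over triplicates above the low-control well mean plus 3 SD, set per campaign, cut at about 13% in these data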;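 further: signal is single emission at 671 nm which falls as cellular cAMP rises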
MC4R antag conf – human MC4R cAMP antagonism confirmation; shares compounds with MC4R antagonist; MC4R-expressing cells, MTII-stimulated cAMP, TR-FRET; inhibition, % at 6.5 µM; 1,600 compounds, 27% hits; in the data active means inhibition above about 29%
A number is an active result; 0 = inactive; - = no result given.

SMILES	NALP1 yeast inh	UUG fidelity	ALR H2O2 inh	MC4R antagonist	MC4R barr agon	HDAC3 inh	U2OS cAMP counter	MC4R antag conf
Cc1cc(C(=O)Nc2cccc3c2O[C@@H](CN(C)S(=O)(=O)c2ccc(Cl)cc2)[C@H](C)CN([C@@H](C)CO)C3=O)n(C)n1	-	0	-	-	-	-	-	-
O=C(/C=C/c1ccc(Cl)c([N+](=O)[O-])c1)Nc1cccc(NC(=O)c2ccco2)c1	0	-	0	45	0	0	53	57
Cc1noc(C)c1COC(=O)/C=C/c1ccc(Cl)cc1	0	0	-	31	0	0	0	0
Cc1noc(C)c1COC(=O)c1cc(F)c(F)cc1Cl	0	0	0	0	0	0	-	-
Cc1noc(C)c1COC(=O)CCCNC(=O)c1ccc(Cl)cc1	0	0	0	0	0	0	-	-
Cc1noc(C)c1COC(=O)c1cnc(Cl)c(Cl)c1	0	-	0	30	0	0	0	33
C[C@@H]1CN([C@@H](C)CO)C(=O)c2cc(C#Cc3ccccn3)cnc2O[C@@H]1CN(C)Cc1ccncc1	-	0	-	-	-	-	-	-
COc1ccc(C2=NOC3(CC(=O)N(c4ccc(F)cc4)C3=O)C2)cc1 (stereo not drawn)	0	-	0	29	0	-	0	0
O=C(O)/C(=C\c1ccc(-c2ccccc2[N+](=O)[O-])o1)c1ccccc1	0	0	-	0	0	0	-	-
O=C(/C=C/c1ccc(-c2ccccc2[N+](=O)[O-])o1)c1ccccc1	0	0	0	30	0	0	0	0
CCCC(=O)Nc1ccc2c(c1)C(=O)N(C)[C@@H]1CC[C@@H](CC(=O)NCCc3ccncc3)O[C@@H]1CO2	-	0	-	-	-	-	-	-
O=C(CC1C(=O)NCCN1CC1CCCCC1)NCc1cccc(F)c1F (stereo not drawn)	0	-	-	30	0	0	0	0
Cc1nn(-c2cccc(Cl)c2)c2nc(-c3ccncc3)cc(C(=O)N3CCOCC3)c12	0	-	0	34	0	0	0	0
COC(=O)c1c(N2C(=O)[C@H]3[C@@H](C2=O)[C@]2(C(=O)Nc4c2ccc(C)c4C)N2CCC[C@@H]32)sc(C)c1C	0	-	0	33	0	0	0	0
COC(=O)c1c(N2C(=O)[C@H]3[C@@H](C2=O)[C@]2(C(=O)Nc4c(C)cc(C)cc42)N2CCC[C@@H]32)sc(C)c1C	0	0	0	0	0	0	-	-
CC(OC(=O)/C(C#N)=C/c1ccc(N(C)C)cc1)C(=O)NCc1ccco1 (stereo not drawn)	-	0	0	73	0	0	41	78
O=C(C[C@H]1C[C@H]2c3cc(NC(=O)NC4CCCC4)ccc3O[C@H]2[C@@H](CO)O1)NCCN1CCCCC1	-	0	-	-	-	-	-	-
Cc1ccc(S(=O)(=O)Nc2cccc3c2O[C@H](CN(C)S(=O)(=O)c2cccs2)[C@@H](C)CN([C@H](C)CO)C3=O)cc1	-	0	-	-	-	-	-	-
Cc1ccccc1NC(=O)COC(=O)c1ccc(S(C)(=O)=O)c([N+](=O)[O-])c1	0	0	0	47	0	0	33	51
CC(CCc1ccccc1)NC(=O)COC(=O)c1ccc(S(C)(=O)=O)c([N+](=O)[O-])c1 (stereo not drawn)	0	-	0	70	0	0	32	55
CC(CCc1ccccc1)NC(=O)COC(=O)c1ccc([N+](=O)[O-])cc1 (stereo not drawn)	0	0	0	0	0	0	-	-
CC=Cc1ccc2n(c1=O)C[C@H]1[C@H](CO)[C@@H](C(=O)NCc3ccc(F)cc3)N(CC)[C@@H]21 (mixture of isomers)	-	0	-	-	-	-	-	-
O=C(C[C@@H]1C=C[C@@H](NS(=O)(=O)c2ccccc2)[C@@H](CO)O1)NCc1ccncn1	-	0	-	-	-	-	-	-
COc1ccc(NC(=O)Nc2ccc3c(c2)C(=O)N([C@@H](C)CO)C[C@H](C)[C@@H](CN(C)C(=O)Nc2ccccc2)OCCCC[C@H](C)O3)cc1	-	0	-	-	-	-	-	-
COc1ccc(-n2c(-c3ccccc3)nc(=S)c3c2CCCC3)cc1	0	0	0	0	0	0	-	-
